ChEMBL document CHEMBL1134792, “Antimitotic antitumor agents: synthesis, structure-activity relationships, and biological characterization of N-aryl-N'-(2-chloroethyl)ureas as new selective alkylating agents” (J Med Chem, 2001)
Calls of active or inactive are those of the source.

Tests used:
Type in all cases: functional, cell-based
MDA-MB-231 = assay: Dose required to inhibit cell growth was determined against MDA-MB-231 cell line of human non-hormone dependent breast carcinoma; NA= Not active represents IC50 >400 uM
Summary of the method: (§1)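 Alamar Blue growth-inhibition assay. Cells ((1–5) × 10³ per well) were preincubated for 24 h, then exposed to increasing drug concentrations for 72 h at 37 °C. Alamar Blue (20%) was added and fluorescence read at ex 485 / em 590 nm. IC50 is the dose inhibiting growth by 50%. Means of ≥3 independent determinations.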

LoVo = assay: Dose required to inhibit cell growth was determined against LoVo cell line of human adenocarcinoma; NA= Not active represents IC50 >400 uM; summary of the method: as §1
P388 = assay: Dose required to inhibit cell growth was determined against P388D1 cell line of murine lymphocytotic leukemia; NA= Not active represents IC50 >400 uM; conditions: Mus musculus; summary of the method: as §1

Measured: NA

O=c1oc(NCCCl)nc2cc(Cl)ccc12
inactive: all assays above
